## Ab-14 light chain CDR variants: yeast mating affinities

Data: MIT Lincoln Laboratory AlphaSeq set, Engelhart et al. 2022, doi:10.1038/s41597-022-01779-4, as distributed in FLAb.

Target: peptide PDVDLGDISGINAS, taken from heptad repeat 2 (HR2) of SARS-CoV-2 spike.

The variants keep the heavy chain, the linker and the frameworks of Ab-14 (scFv order VH, the linker GGGGSGGGGSGGGGS, VL).
VH: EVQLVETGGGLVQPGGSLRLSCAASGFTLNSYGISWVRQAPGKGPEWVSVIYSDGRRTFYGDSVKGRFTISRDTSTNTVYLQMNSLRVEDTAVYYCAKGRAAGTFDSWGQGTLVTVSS
VL: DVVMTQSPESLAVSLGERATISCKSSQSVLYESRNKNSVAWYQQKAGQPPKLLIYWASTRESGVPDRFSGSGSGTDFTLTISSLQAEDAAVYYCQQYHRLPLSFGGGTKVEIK

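The starting antibody came from a phage panning campaign against this peptide. In library AAYL50, one, two or three CDR residues were substituted; doubles and triples were drawn at random. The assay is AlphaSeq: two haploid yeast populations carry antibody and antigen on their surface. Mating (16 h, 30 °C) was followed by selection of diploids and sequencing of their barcodes. Each replicate has its own calibration line, from reference interactions of the BCL2 family. There are three technical replicates.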

Positions count from residue 1 of the parent VL; E32P puts P in place of E. Values are apparent Kd, the geometric mean of the replicates that gave a signal; lower means stronger binding. "no signal" means that the variant was in the library but no mating with the target was seen in any replicate; the authors take this as a sign of poor binding, and no number exists. Three control strains display no target. For library AAYL50, 18% of the pairings with them gave a signal, with a median of 15 µM and one signal in twenty below 970 nM, so weak values seen in few replicates may be background.

The variant E32P+N37T+W56S gave 8.1 nM (3 of 3 replicates).
The variant N37V+V39N+Q96T gave no signal (0 of 3 replicates).
The variant S33Q+K36L+Q96Y gave 160 nM (3 of 3 replicates).
The variant R34K+K36D+P101Y gave no signal (0 of 3 replicates).
The variant R34S+T59Y+Q95E gave 16 nM (3 of 3 replicates).
The variant N37K+S62L+Q95N gave 200 nM (3 of 3 replicates).
The variant A57M+R60L+Q96L gave no signal (0 of 3 replicates).
The variant L30H+S33H+R60C gave 3.1 µM (1 of 3 replicates).
The variant A57Q+H98I+R99M gave no signal (0 of 3 replicates).
The variant S25G+S26E+S58W gave no signal (0 of 3 replicates).
The variant N37P+Q96M+L102C gave 11 µM (2 of 3 replicates).
The variant S33N+N37C+Q95L gave no signal (0 of 3 replicates).
The variant S58D+Q95A+L100S gave 11 µM (1 of 3 replicates).
The variant Q27L+L30S gave 5.8 nM (3 of 3 replicates).
The variant K24Y+K36P+H98W gave 4.4 µM (3 of 3 replicates).
The variant S26P+Q27R+L102N gave 24 nM (3 of 3 replicates).
The variant S26K+V39P+S58G gave 74 µM (1 of 3 replicates).
The variant R60V+Q96P+L102Y gave 2.0 mM (1 of 3 replicates).
The variant S25D+R34L+N37F gave 310 nM (3 of 3 replicates).
The variant Y31N+S38Q gave 57 nM (3 of 3 replicates).
The variant Y31S+A40R+S103R gave no signal (0 of 3 replicates).
The variant Q95Y+L102D gave 560 nM (1 of 3 replicates).
The variant S28G+V39L+W56M gave 8.2 nM (3 of 3 replicates).
The variant E32N+R34E+T59F gave 6.2 nM (3 of 3 replicates).
The variant K24S+S28E+P101V gave 200 µM (1 of 3 replicates).
The variant E32T+Q96E+S103H gave 540 nM (3 of 3 replicates).
The variant K24F+Q95G gave 470 nM (1 of 3 replicates).
The variant A40Q+S62A+Y97M gave 15 µM (3 of 3 replicates).
The variant V29Q+N37C gave 130 nM (3 of 3 replicates).
The variant V29M+V39C+T59P gave 19 µM (1 of 3 replicates).
The variant V39P+S103G gave 19 µM (1 of 3 replicates).
The variant K36N+A40G+L100S gave 1.2 mM (1 of 3 replicates).
The variant S28R+V29W+Q95P gave no signal (0 of 3 replicates).
The variant S58L+Q96M+L102E gave 3.0 µM (3 of 3 replicates).
The variant V29M+Y31C+K36F gave 130 nM (3 of 3 replicates).
The variant N37A+S58A+T59M gave 4.6 µM (3 of 3 replicates).
The variant K24Q+Y97H gave 140 nM (3 of 3 replicates).
The variant S33D+E61L+L100S gave 1.2 µM (3 of 3 replicates).
The variant S25T+S26G+S58F gave 290 nM (3 of 3 replicates).
The variant S28C+R99K+L100I gave no signal (0 of 3 replicates).
The variant Q96K+H98S gave 14 nM (3 of 3 replicates).
The variant K36A+H98L+L100W gave 29 nM (3 of 3 replicates).
The variant Q27P+S38W+Y97P gave no signal (0 of 3 replicates).

The closing 3 entries, repeated:

{"changes": "Q96K+H98S", "Kd": "14 nM", "detected": "3/3"}
{"changes": "K36A+H98L+L100W", "Kd": "29 nM", "detected": "3/3"}
{"changes": "Q27P+S38W+Y97P", "Kd": "no signal", "detected": "0/3"}